Values joined by “and” are separate entries in the source; they are usually repeats but may differ in a detail not shown here. Equal entries are not always repeated.
Assay: In vivo antidotal efficacy in a mouse model (Dixon up-and-down LD50 of KCN)
Conditions: KCN sc

Row | Molecule | APR (LD50 of CN with antidote/LD50 of CN without antidote) (antidote 3.2 mg/kg im) | APR (LD50 of CN with antidote/LD50 of CN without antidote) (antidote 6.4 mg/kg im) | APR (LD50 of CN with antidote/LD50 of CN without antidote) (antidote 12.5 mg/kg im) | APR (LD50 of CN with antidote/LD50 of CN without antidote) (antidote 25 mg/kg im) | APR (LD50 of CN with antidote/LD50 of CN without antidote) (antidote 50 mg/kg im) | APR (LD50 of CN with antidote/LD50 of CN without antidote) (antidote 100 mg/kg im) | APR (LD50 of CN with antidote/LD50 of CN without antidote) (antidote 200 mg/kg im) | in vivo antidotal efficacy, DMTS vs TS (antidote im, comparison with TS)
1 | O=NO | 1.0 | 1.3 |  |  |  |  |  | 
2 | dimethyl trisulfide |  |  | 2.1 | 1.7 | 2.04 and 2.0 | 3.4 and 3.2 | 4.1 | superior
3 | sodium thiosulfate |  |  |  |  |  | 1.1 | 1.3 | 

— patent US9375407B2, “Dimethyl trisulfide as a cyanide antidote” (dated 2016)
